In test [1] the test system is Mus musculus. Briefly: In vivo antagonist/agonist nature after subcutaneous administration to mice using tail flick (TF) antagonist assay vs. morphine.
For test [2], the system named is Mus musculus. The test can be described thus: In vivo antagonist/agonist nature after subcutaneous administration using hot plate assay. For orientation: In hot-plate and tail-flick tests a longer latency is read as antinociception.
For test [3], the system named is Mus musculus. The test can be described thus: In vivo antagonist nature after subcutaneous administration at 10 mg/Kg to mice using tail flick (TF) antagonist assay vs. morphine. The arrangement: scale not given: the % may be the effect or the level left.
In test [4] the test system is Mus musculus. The test can be described thus: In vivo antagonist nature after subcutaneous administration at 30 mg/Kg to mice using tail flick (TF) antagonist assay vs. morphine. The arrangement: scale not given: the % may be the effect or the level left.
Test [5] deals with Mus musculus. The test can be described thus: In vivo antagonist nature after subcutaneous administration at 3 mg/Kg to mice using tail flick (TF) antagonist assay vs. morphine. On the set-up: scale not given: the % may be the effect or the level left.

For the compound `C=CCN1CC[C@]23c4c5ccc(O)c4O[C@H]2C2(OC)C=C[C@@]3(C[C@@H]2N=S)[C@H]1C5.O=C(O)C(=O)O`, the ED50 (as a rule, the midpoint of the dose-response relation) in test [1] came out at 0.6 mg/kg. Compound `C=CCN1CC[C@]23c4c5ccc(O)c4O[C@H]2C2(OC)C=C[C@@]3(C[C@@H]2N)[C@H]1C5.O=C(O)C(=O)O` had an ED50 in test [2] of 7.6 mg/kg.

Compound `COC(=O)/C=C/C(=O)N[C@H]1C[C@@]23C=CC1(OC)[C@@H]1Oc4c(O)ccc5c4[C@@]12CCN(CC1CC1)[C@@H]3C5.O=C(O)C(=O)O` returned an ED50 in test [1] of 1.5 mg/kg. `C=CCN1CC[C@]23c4c5ccc(O)c4O[C@H]2C2(OC)C=C[C@@]3(C[C@@H]2NC(=O)CBr)[C@H]1C5.O=C(O)C(=O)O` had an ED50 in test [1] of 2.1 mg/kg. `CO[C@]12C=C[C@@]3(C[C@@H]1NC(=O)CBr)[C@H]1Cc4ccc(O)c5c4[C@@]3(CCN1CC1CC1)[C@H]2O5`: the ED50 in test [1] came to 0.4 mg/kg. As to `C=CCN1CC[C@]23c4c5ccc(O)c4O[C@H]2C2(OC)C=C[C@@]3(C[C@@H]2NC(=O)/C=C/C(=O)OC)[C@H]1C5.O=C(O)C(=O)O`, it took a dose of 6.3 mg/kg to reach the 50% effect level in test [1] (ED50).

For the compound `COC12C=C[C@@]3(C[C@@H]1N=S)[C@H]1Cc4ccc(O)c5c4[C@@]3(CCN1CC1CC1)[C@H]2O5.O=C(O)C(=O)O`, the 50% effect level in test [1] (ED50) was put at a dose of 0.2 mg/kg. Turning to `CO[C@]12C=C[C@@]3(C[C@@H]1N)[C@H]1Cc4ccc(O)c5c4[C@@]3(CCN1CC1CC1)[C@H]2O5`, the ED50 in test [1] was 30 mg/kg. In addition, the Effect in test [3] turned out to be 30%; in test [4] it was 52%; in test [5], 5%.

Turning to `C=CCN1CC[C@]23c4c5ccc(O)c4O[C@H]2[C@@H](O)C=C[C@H]3[C@H]1C5.Cl`, the results for the ED50 in test [2] and in test [1] were 9.9 mg/kg and 0.8 mg/kg, respectively.

The record behind these values is ChEMBL document CHEMBL1123259, “Probes for narcotic receptor mediated phenomena. 13. Potential irreversible narcotic antagonist-based ligands derived from 6,14-endo-ethenotetrahydronororipavine with 7-(methoxyfumaroyl)amino, (bromoacetyl)amino, or isothiocyanate electrophiles: chemistry, biochemistry, and pharmacology” (1986).
